According to patent US20100099613A1 (published 2010):

molecular target: HLA-A11 (Homo sapiens, UniProt P04439, A114D/DEL338-343/F33Y/S129P); assay: HLA class I competition binding assay using soluble HLA (125I probe peptide); details: not given

Q: How did the IC50 turn out when `CC[C@H](C)[C@H](NC(=O)[C@H](C)NC(=O)[C@H](C)NC(=O)[C@H](CS)NC(=O)[C@@H](NC(=O)[C@@H](NC(=O)CN)C(C)C)C(C)C)C(=O)N[C@@H](CC(C)C)C(=O)N[C@@H](CCCNC(=N)N)C(=O)O` was run?
A: The IC50 was 38 nM.

Q: And the Ki?
A: Its Ki is 38 nM.

Q: `CC[C@H](C)[C@H](NC(=O)[C@H](CC(=O)O)NC(=O)[C@@H](NC(=O)[C@H](CC(C)C)NC(=O)[C@@H](NC(=O)[C@@H](N)CCCCN)C(C)C)C(C)C)C(=O)N[C@@H](CC(C)C)C(=O)N[C@@H](C)C(=O)NCC(=O)N[C@@H](Cc1ccc(O)cc1)C(=O)O` was tested. Which IC50 did it give?
A: Its IC50 is 163 nM.

Q: For `CC[C@H](C)[C@H](NC(=O)[C@H](C)NC(=O)[C@H](C)NC(=O)[C@H](CS)NC(=O)[C@@H](NC(=O)[C@@H](NC(=O)CN)C(C)C)C(C)C)C(=O)N[C@@H](CC(C)C)C(=O)N[C@@H](CCCNC(=N)N)C(=O)N[C@@H](CCCNC(=N)N)C(=O)O`, which IC50 is on record?
A: The IC50 was 215 nM.

Q: And the Ki?
A: Its Ki is 215 nM.

Q: With `CC(C)C[C@H](NC(=O)[C@H](C)NC(=O)[C@H](C)NC(=O)[C@H](CC(C)C)NC(=O)[C@@H](NC(=O)CN)C(C)C)C(=O)N[C@@H](C)C(=O)N[C@@H](C)C(=O)N[C@@H](Cc1ccc(O)cc1)C(=O)O` as the compound, how does the Ki read?
A: The Ki was 545 nM.

Q: For `CC(C)C[C@H](N)C(=O)N[C@@H](Cc1ccccc1)C(=O)N[C@@H](CC(N)=O)C(=O)N[C@@H](Cc1c[nH]c2ccccc12)C(=O)N[C@@H](C)C(=O)N[C@H](C(=O)N[C@@H](CCCNC(=N)N)C(=O)N[C@H](C(=O)N[C@@H](CCCCN)C(=O)O)[C@@H](C)O)C(C)C`, which Ki is on record?
A: Its Ki is 7570 nM.

Q: Which IC50 does the source give for `CC[C@H](C)[C@H](NC(=O)CN)C(=O)N[C@@H](Cc1ccccc1)C(=O)N[C@@H](CCCNC(=N)N)C(=O)N[C@@H](C)C(=O)N[C@@H](C)C(=O)N[C@H](C(=O)N[C@@H](CS)C(=O)N[C@H](C(=O)N[C@@H](CCCNC(=N)N)C(=O)O)[C@@H](C)O)C(C)C` here?
A: Its IC50 is 129 nM.

Q: What about the Ki of the same compound?
A: Its Ki is 129 nM.

Q: How did the IC50 turn out when `CC[C@H](C)[C@H](NC(=O)[C@@H]1CCCN1C(=O)[C@H](C)NC(=O)[C@H](CC(C)C)NC(=O)[C@H](CC(C)C)NC(=O)[C@@H](N)CCCNC(=N)N)C(=O)N[C@H](C(=O)N[C@@H](C)C(=O)N[C@@H](Cc1ccc(O)cc1)C(=O)O)[C@@H](C)O` was run?
A: Its IC50 is 222 nM.

molecular target: HLA-A01 (Homo sapiens, UniProt P04439, A114D/A174V/A182V/D101N/E190D/Q94H/R68K/S129P/V100A/V91M/W191G); assay: as above; details: not given

Q: `CSCC[C@H](NC(=O)[C@@H](NC(=O)[C@H](C)N)C(C)C)C(=O)NCC(=O)N[C@@H](CO)C(=O)N[C@@H](CO)C(=O)N[C@@H](Cc1ccc(O)cc1)C(=O)NCC(=O)N[C@@H](Cc1ccccc1)C(=O)O` was tested. Which Ki did it give?
A: Its Ki is 16100 nM.

Q: With `CSCC[C@H](N)C(=O)NCC(=O)N[C@@H](CO)C(=O)N[C@@H](CO)C(=O)N[C@@H](Cc1ccc(O)cc1)C(=O)NCC(=O)N[C@@H](Cc1ccccc1)C(=O)N[C@@H](CCC(N)=O)C(=O)N[C@@H](Cc1ccc(O)cc1)C(=O)O` as the compound, how does the Ki read?
A: The Ki was 917 nM.

Q: `C[C@H](NC(=O)[C@@H]1CCCN1C(=O)[C@@H]1CCCN1C(=O)[C@H](CO)NC(=O)[C@H](CO)NC(=O)[C@H](CC(N)=O)NC(=O)[C@H](CC(=O)O)NC(=O)[C@@H](NC(=O)[C@@H](N)Cc1ccccc1)[C@@H](C)O)C(=O)O` was tested. Which IC50 did it give?
A: Its IC50 is 10 nM.

Q: What about the Ki of the same compound?
A: The Ki was 10 nM.

Q: For `CC(C)[C@H](NC(=O)[C@H](CCCNC(=N)N)NC(=O)[C@H](CCCCN)NC(=O)CNC(=O)[C@H](CO)NC(=O)[C@H](C)NC(=O)[C@@H](N)CC(=O)O)C(=O)N[C@@H](Cc1ccc(O)cc1)C(=O)N[C@@H](Cc1ccc(O)cc1)C(=O)O`, which Ki is on record?
A: The Ki was 5630 nM.

Q: Which Ki does the source give for `CSCC[C@H](NC(=O)[C@H](C)NC(=O)[C@H](CCC(=O)O)NC(=O)[C@@H](NC(=O)[C@H](Cc1ccccc1)NC(=O)[C@@H](NC(=O)[C@@H](N)CCCNC(=N)N)C(C)C)[C@@H](C)O)C(=O)N[C@H](C(=O)N[C@@H](CCCNC(=N)N)C(=O)N[C@@H](Cc1ccc(O)cc1)C(=O)O)[C@@H](C)O` here?
A: Its Ki is 3490 nM.

Q: For `CSCC[C@H](NC(=O)[C@H](CC(C)C)NC(=O)[C@H](CC(=O)O)NC(=O)[C@H](C)NC(=O)[C@H](Cc1ccccc1)NC(=O)CNC(=O)[C@H](CS)NC(=O)[C@@H](NC(=O)[C@@H](N)CC(C)C)[C@@H](C)O)C(=O)O`, which Ki is on record?
A: Its Ki is 759 nM.

Q: With `CC[C@H](C)[C@H](NC(=O)[C@H](CC(=O)O)NC(=O)[C@@H](NC(=O)[C@@H](N)CC(C)C)C(C)C)C(=O)N[C@@H](CC(C)C)C(=O)N[C@@H](C)C(=O)NCC(=O)N[C@@H](Cc1ccc(O)cc1)C(=O)NCC(=O)N[C@@H](C)C(=O)O` as the compound, how does the IC50 read?
A: The IC50 was 98 nM.

Q: And the Ki?
A: The Ki was 258 nM.

Q: For `CC(C)[C@H](NC(=O)[C@H](C)NC(=O)[C@@H]1CCCN1C(=O)[C@@H]1CCCN1C(=O)[C@H](CO)NC(=O)[C@H](CO)NC(=O)[C@H](CC(N)=O)NC(=O)[C@H](CC(=O)O)NC(=O)[C@@H](NC(=O)[C@@H](N)Cc1ccccc1)[C@@H](C)O)C(=O)O`, which IC50 is on record?
A: Its IC50 is 45 nM.

Q: And the Ki?
A: Its Ki is 45 nM.

Q: How did the IC50 turn out when `CSCC[C@H](NC(=O)[C@H](CC(C)C)NC(=O)[C@H](C)NC(=O)[C@H](CC(=O)O)NC(=O)[C@@H](NC(=O)[C@H](C)N)[C@@H](C)O)C(=O)N[C@H](C(=O)NCC(=O)N[C@@H](Cc1ccc(O)cc1)C(=O)N[C@H](C(=O)O)[C@@H](C)O)[C@@H](C)O` was run?
A: The IC50 was 227 nM.

Q: And the Ki?
A: Its Ki is 227 nM.

Q: For `CC(C)C[C@H](N)C(=O)N[C@@H](C)C(=O)N[C@@H](CC(=O)O)C(=O)NCC(=O)NCC(=O)N[C@@H](CS)C(=O)N[C@@H](CO)C(=O)NCC(=O)NCC(=O)N[C@@H](C)C(=O)N[C@@H](Cc1ccc(O)cc1)C(=O)O`, which Ki is on record?
A: The Ki was 60 nM.

Q: For `CC[C@H](C)[C@H](NC(=O)[C@@H](N)C(C)C)C(=O)N[C@@H](CC(=O)O)C(=O)N[C@H](C(=O)N[C@@H](CC(C)C)C(=O)N[C@H](C(=O)N[C@@H](CS)C(=O)NCC(=O)N[C@@H](Cc1ccccc1)C(=O)O)[C@@H](C)O)[C@@H](C)O`, which Ki is on record?
A: Its Ki is 1020 nM.

Q: How did the IC50 turn out when `CSCC[C@H](NC(=O)[C@H](C)NC(=O)[C@H](CCC(=O)O)NC(=O)[C@@H](NC(=O)[C@@H](N)Cc1ccccc1)[C@@H](C)O)C(=O)N[C@H](C(=O)N[C@@H](CCCNC(=N)N)C(=O)N[C@@H](Cc1ccc(O)cc1)C(=O)N[C@@H](CO)C(=O)N[C@@H](C)C(=O)O)[C@@H](C)O` was run?
A: Its IC50 is 464 nM.

Q: And the Ki?
A: The Ki was 1860 nM.

Q: For `CC[C@H](C)[C@H](NC(=O)[C@H](CC(N)=O)NC(=O)CNC(=O)[C@H](CC(C)C)NC(=O)[C@H](Cc1c[nH]c2ccccc12)NC(=O)[C@H](CO)NC(=O)[C@@H](N)CC(N)=O)C(=O)N[C@H](C(=O)N[C@@H](CCSC)C(=O)N[C@@H](Cc1ccc(O)cc1)C(=O)O)[C@@H](C)CC`, which Ki is on record?
A: The Ki was 1860 nM.

Q: Which Ki does the source give for `CC(C)[C@H](NC(=O)[C@H](CCCCN)NC(=O)[C@@H](NC(=O)[C@H](CO)NC(=O)[C@@H](N)CCCCN)[C@@H](C)O)C(=O)N1CCC[C@H]1C(=O)N[C@@H](C)C(=O)N[C@@H](C)C(=O)N[C@@H](Cc1ccc(O)cc1)C(=O)O` here?
A: The Ki was 858 nM.

same assay, conditions: HLA-A0101

Q: With LCECYDAGC as the compound, how does the “Ki (nM)” value read?
A: Its value is “high”.

Q: How did the “Ki (nM)” value turn out when `CC[C@H](C)[C@H](NC(=O)[C@@H](NC(=O)[C@H](Cc1ccccc1)NC(=O)[C@@H](NC(=O)[C@@H]1CCCN1C(=O)[C@H](CC(=O)O)NC(=O)[C@H](CC(C)C)NC(=O)[C@@H](N)CO)[C@@H](C)O)[C@@H](C)O)C(=O)N[C@@H](CCC(=O)O)C(=O)N[C@H](C(=O)O)[C@@H](C)O` was run?
A: The value was “high”.

Q: With `CC(C)C[C@H](NC(=O)[C@@H]1CCCN1C(=O)[C@@H](NC(=O)[C@@H](NC(=O)[C@@H]1CCCN1C(=O)[C@H](CC(=O)O)NC(=O)[C@H](CCCNC(=N)N)NC(=O)[C@@H](N)[C@@H](C)O)[C@@H](C)O)[C@@H](C)O)C(=O)N[C@@H](C)C(=O)N[C@@H](CCCNC(=N)N)C(=O)O` as the compound, how does the “Ki (nM)” value read?
A: Its value is “high”.

Q: With `CC(C)C[C@H](NC(=O)[C@H](CC(N)=O)NC(=O)[C@@H](NC(=O)[C@H](CC(C)C)NC(=O)[C@H](CC(=O)O)NC(=O)[C@H](CCC(=O)O)NC(=O)[C@@H](NC(=O)[C@@H](N)CO)[C@@H](C)O)C(C)C)C(=O)N[C@@H](CC(C)C)C(=O)N1CCC[C@H]1C(=O)O` as the compound, how does the “Ki (nM)” value read?
A: The value was “high”.
